The target in the assay is PIK3CB (Human) (UniProt P42338). The experiment in a line: Enzyme Assay.

The chains behind the UniProt entries cited, without tags or fusion partners. Where a name states a change or a piece, a line headed by the entry shows the natural chain unless it says otherwise.
UniProt P42338: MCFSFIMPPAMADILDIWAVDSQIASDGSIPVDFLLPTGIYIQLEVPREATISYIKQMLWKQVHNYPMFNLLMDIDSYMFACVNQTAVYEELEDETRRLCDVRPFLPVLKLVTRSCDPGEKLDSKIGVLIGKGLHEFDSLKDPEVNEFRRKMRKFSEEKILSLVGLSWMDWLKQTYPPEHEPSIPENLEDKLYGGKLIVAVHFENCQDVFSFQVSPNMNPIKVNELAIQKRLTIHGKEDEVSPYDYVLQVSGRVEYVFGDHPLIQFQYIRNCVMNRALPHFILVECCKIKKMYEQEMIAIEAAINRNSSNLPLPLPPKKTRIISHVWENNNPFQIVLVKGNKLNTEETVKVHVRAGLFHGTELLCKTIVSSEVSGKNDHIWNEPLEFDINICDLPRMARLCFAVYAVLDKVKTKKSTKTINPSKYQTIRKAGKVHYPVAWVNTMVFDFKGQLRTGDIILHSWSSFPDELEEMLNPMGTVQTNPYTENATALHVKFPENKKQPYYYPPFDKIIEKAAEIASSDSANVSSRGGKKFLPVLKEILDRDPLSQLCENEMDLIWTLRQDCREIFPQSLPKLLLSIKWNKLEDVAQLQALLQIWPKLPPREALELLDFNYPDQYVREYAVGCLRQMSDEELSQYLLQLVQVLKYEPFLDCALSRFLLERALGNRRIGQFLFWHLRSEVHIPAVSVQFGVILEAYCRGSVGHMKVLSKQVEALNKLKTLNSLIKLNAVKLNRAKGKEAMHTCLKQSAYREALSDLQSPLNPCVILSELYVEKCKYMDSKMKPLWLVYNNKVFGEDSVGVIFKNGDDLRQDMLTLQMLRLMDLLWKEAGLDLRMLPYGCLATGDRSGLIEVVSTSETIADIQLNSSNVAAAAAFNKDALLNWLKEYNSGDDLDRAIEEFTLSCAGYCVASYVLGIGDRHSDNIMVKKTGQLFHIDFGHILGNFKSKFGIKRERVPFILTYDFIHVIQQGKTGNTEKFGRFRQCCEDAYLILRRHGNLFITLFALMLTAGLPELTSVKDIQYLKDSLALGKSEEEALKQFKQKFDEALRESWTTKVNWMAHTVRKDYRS

In turn, `Nc1ncc(-c2cc(N3CCOCC3)nc(N3CCOCC3)n2)c(C(F)(F)F)n1` had an IC50 of 37 nM.

The record behind these values is the Kinase Knowledgebase extract (Sharma et al. 2016).
